Assay results as given in PubChem BioAssay AID493091 (Sanford-Burnham Center for Chemical Genomics, 2011).
The list shows a part of the results, in another mix than the full data. Activity calls are given as the source filed them.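 Rule for the calls: active = inhibition above about 50% at 20 µM (limit read from the data); inactive = the rest.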

Amino acid sequences for entries named in this document (tags omitted). Residues count along the entry.
UniProt Q9GZU7, 76-261 limits assumed: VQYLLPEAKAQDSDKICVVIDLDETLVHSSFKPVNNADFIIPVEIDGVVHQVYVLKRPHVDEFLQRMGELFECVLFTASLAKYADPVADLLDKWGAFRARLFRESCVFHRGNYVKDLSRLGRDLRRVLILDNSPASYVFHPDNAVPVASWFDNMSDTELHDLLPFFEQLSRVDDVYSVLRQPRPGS

These compounds were tested against Carboxy-terminal domain RNA polymerase II polypeptide A small phosphatase 1 (Homo sapiens) (UniProt Q9GZU7) (assay: Scp-1 phosphatase inhibitors, primary screen, biochemical, colorimetric, uHTS (AID 493091;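 note: plate controls were DMSO wells with enzyme for no effect and wells lacking enzyme for full effect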)). Details: Recombinant Scp1, phosphopeptide, malachite green phosphate absorbance; at 20 µM; hits give high values.
Procedure, shortened: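 Incubation: 45 min enzyme reaction at room temperature / System: truncated SCP-1 phosphatase (76-261aa) / Reagent: Phospho 17-mer peptide substrate / Buffer or medium: Acidic Tris acetate buffer with magnesium and detergent / Signal: absorbance at 630 nm / Doses: one concentration, 20 µM, with 1.0% DMSO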
With CN(C)C1(CNC(=O)c2cccc(C#N)c2)CCCCC1 the inhibition was inactive: -5.74%. With CCCN1CCC(Nc2cc(OC)cc(OC)c2)CC1 the inhibition was inactive: -10.2%. Cc1cc(N(CCCl)CCCl)ccc1C=O was tested, and the inhibition was inactive: -2.79%. c1ccc(CN2CCC(Nc3ccccc3)CC2)cc1 was tested, and the inhibition was inactive: -4.24%. In the case of N#Cc1ccc(C(=O)NCC2(N3CCCCC3)CCCCC2)cc1, the inhibition is reported as inactive: 1.44%. With CC(C)(C)OC(=O)N1CCC(N(C(=O)c2ccccc2)c2ccc(Cl)cc2)CC1 the inhibition was inactive: -9.05%. In the case of O=C(OC1CN2CCC1CC2)C1c2ccccc2C=Cc2ccccc21 (stereo not given), the inhibition is reported as inactive: -6.85%. For CCc1cc(C(=O)NCC2(N3CCCCC3)CCCCC2)sc1C, the inhibition was inactive: -6.94%. With CCOC(=O)N1CCC(Nc2ccc(C)cc2)CC1 the inhibition was inactive: -6.01%. In the case of N/C(=N\O)c1c(N)no[n+]1[O-], the inhibition is reported as inactive: -9.53%. COc1ccc(C(=O)NCC2(N3CCOCC3)CCCCC2)cc1OC was tested, and the inhibition was inactive: -3.26%. In the case of COc1cc(C(=O)NCC2(N3CCOCC3)CCCCC2)cc(OC)c1C, the inhibition is reported as inactive: -4.35%. For O=C(NCC1(N2CCOCC2)CCCCC1)c1cc(Br)ccc1Cl, the inhibition was inactive: 2.84%. For CN1CCC(Nc2ccc(Cl)cc2)CC1, the inhibition was inactive: -3.55%. In the case of COc1cccc(C(=O)N(c2cc(C)cc(C)c2)C2CCN(C(=O)OC(C)(C)C)CC2)c1, the inhibition is reported as inactive: -15.9%. With COc1cc(OC)cc(C(=O)NCC2(N3CCOCC3)CCCCC2)c1 the inhibition was inactive: -10.4%. With CCC(CO)(C(=O)OC1CN2CCC1CC2)c1ccccc1 (stereo not given) the inhibition was inactive: 1.11%. O=C(O)C1(Nc2ccccc2)CCN(Cc2ccccc2)CC1 was tested, and the inhibition was inactive: -11%. With CC(C)(C)OC(=O)N1CCC(Nc2ccccc2)CC1 the inhibition was inactive: 2.58%. In the case of CCCOc1ccc(C(=O)NCC2(N(C)C)CCCCC2)cc1, the inhibition is reported as inactive: -6.82%. In the case of CN1CCC(Nc2ccc(F)c(Cl)c2)CC1, the inhibition is reported as inactive: 2.4%. With CCOc1ncccc1C(=O)NCC1(N2CCOCC2)CCCCC1 the inhibition was inactive: -14.3%. In the case of Cn1c(=O)[nH]cc(N(CCCl)CCCl)c1=O, the inhibition is reported as inactive: -4.68%. In the case of CN(C)c1ccc(C(=O)NCC2(N3CCCCC3)CCCCC2)cc1, the inhibition is reported as inactive: -2.65%. O=C(NCC1(N2CCCCC2)CCCCC1)c1ccco1 was tested, and the inhibition was inactive: -3.58%. With CCN1CCC(Nc2cccc(F)c2)CC1 the inhibition was inactive: -7.1%. With Cc1ccccc1NC1(C#N)CCN(Cc2ccccc2)CC1 the inhibition was inactive: -15.3%. Fc1ccccc1NC1CCN(Cc2ccccc2)CC1 was tested, and the inhibition was inactive: -5.22%. In the case of Cc1ccc(C(=O)NCC2(N3CCCCC3)CCCCC2)o1, the inhibition is reported as inactive: -0.57%. Cc1ccc(NC2(C#N)CCN(Cc3ccccc3)CC2)cc1 was tested, and the inhibition was inactive: 2.63%. In the case of CC(=O)N(c1ccccc1)C1CCNCC1, the inhibition is reported as inactive: -2.23%. With COc1cc(OC)cc(C(=O)NCC2(N3CCCCC3)CCCCC2)c1 the inhibition was inactive: -5.49%. For COc1cc(C(=O)NCC2(N(C)C)CCCCC2)ccc1OC(F)F, the inhibition was inactive: 13.5%. For CCOC(=O)N1CCC(Nc2cccc(C)c2)CC1, the inhibition was inactive: -6.2%. CCOC(=O)N1CCC(Nc2ccc(F)cc2)CC1 was tested, and the inhibition was inactive: -3.69%. In the case of COc1ccc(NC2CCN(CCc3ccccc3)CC2)c(OC)c1, the inhibition is reported as inactive: -6.17%. O=C(NCC1(N2CCCCC2)CCCCC1)c1ccc(F)cc1 was tested, and the inhibition was inactive: -3.83%. CCCCOc1ccc(C(=O)NCC2(N3CCOCC3)CCCCC2)cc1 was tested, and the inhibition was inactive: -2.34%. In the case of O=P1(N(CCCl)CCCl)SCCCS1, the inhibition is reported as inactive: -3.9%. In the case of O=C1CCN(Cc2ccccc2)CC1, the inhibition is reported as inactive: 4.1%. CCOc1ccc(C)cc1CN(CCCl)CCCl was tested, and the inhibition was inactive: -14.2%. For COc1ccc(Cl)cc1C(=O)NCC1(N2CCOCC2)CCCCC1, the inhibition was inactive: -1.73%. With O=C(OC1CN2CCC1CC2)C1c2ccccc2Oc2ccccc21 (stereo not given) the inhibition was inactive: -7.65%. In the case of N#CC1(Nc2ccccc2)CCN(Cc2ccccc2)CC1, the inhibition is reported as inactive: -10.9%. With O=C(NCC1(N2CCCCC2)CCCCC1)c1ccc(Cl)s1 the inhibition was inactive: -4.57%. In the case of CCOC(=O)N1CCC(Nc2ccc(OC)cc2)CC1, the inhibition is reported as inactive: -4.74%. In the case of Cc1cc(C)cc(N(C(=O)c2ccccc2)C2CCN(C(=O)OC(C)(C)C)CC2)c1, the inhibition is reported as inactive: -5.74%. O=C(NCC1(N2CCCCC2)CCCCC1)c1ccc(Cl)nc1 was tested, and the inhibition was inactive: -5.8%. For O=C(NCC1(N2CCOCC2)CCCCC1)c1cc2ccccc2o1, the inhibition was inactive: 3.82%. With Cc1cccc(NC2(C#N)CCN(Cc3ccccc3)CC2)c1 the inhibition was inactive: -0.04%. CSc1ccccc1C(=O)NCC1(N2CCCCC2)CCCCC1 was tested, and the inhibition was inactive: -2.98%. With COc1ccc(C(=O)NCC2(N3CCCCC3)CCCCC2)c(OC)c1OC the inhibition was inactive: 10.6%. In the case of CC(C)(C)OC(=O)N1CCC(N(C(=O)c2ccccc2)c2ccc(F)cc2)CC1, the inhibition is reported as inactive: -7.31%. With COc1ccc(C(=O)NCC2(N3CCCCC3)CCCCC2)cc1 the inhibition was inactive: 0.15%. For O=C(NCC1(N2CCCCC2)CCCCC1)c1cccs1, the inhibition was inactive: 14.8%. With O=C(NCC1(N2CCCCC2)CCCCC1)c1ccc(=O)[nH]c1 the inhibition was inactive: -4.7%. For CCCOc1ccc(C(=O)NCC2(N(C)C)CCCCC2)cc1OC, the inhibition was inactive: -1.55%. In the case of O=C(NCC1(N2CCCCC2)CCCCC1)c1cncc(Br)c1, the inhibition is reported as inactive: -2.74%. CN1CCC(Nc2cccc(F)c2)CC1 was tested, and the inhibition was inactive: -4.37%. In the case of O=C(NCC1(N2CCOCC2)CCCCC1)c1cc(F)c(F)cc1Cl, the inhibition is reported as inactive: -8.57%. COc1cc(OC)c(C(=O)NCC2(N(C)C)CCCCC2)cc1OC was tested, and the inhibition was inactive: -3.66%. With CC(C)c1ccc(NC2CCN(C(=O)OC(C)(C)C)CC2)cc1 the inhibition was inactive: -2.65%. CN(C)c1cccc(C(=O)NCC2(N3CCCCC3)CCCCC2)c1 was tested, and the inhibition was inactive: -4.57%. With COc1ccc(CN(CCCl)CCCl)cc1Cl the inhibition was inactive: -4.45%. With O=C(NCC1(N2CCOCC2)CCCCC1)c1cc(=O)[nH]c2ccccc12 the inhibition was inactive: 0.47%. With COc1cc(C(=O)NCC2(N3CCCCC3)CCCCC2)ccc1OC(F)F the inhibition was inactive: -7.11%. COc1ccc(NC2CCN(C(=O)OC(C)(C)C)CC2)cc1 was tested, and the inhibition was inactive: -7.74%. With CC(C)c1ccc(C(=O)NCC2(N3CCOCC3)CCCCC2)cc1 the inhibition was inactive: -0.06%. With CN1CCN(CCOC(=O)C(O)(c2ccccc2)c2ccccc2)CC1 the inhibition was inactive: -11.1%. For O=C(NCC1(N2CCCCC2)CCCCC1)c1cccc(C(F)(F)F)c1, the inhibition was inactive: -0.76%. With N#CC1(Nc2ccccc2)CCN(CCc2ccccc2)CC1 the inhibition was inactive: -10.1%. In the case of CCN1CCC(Nc2ccc(Cl)cc2)CC1, the inhibition is reported as inactive: -1.18%. CSc1ccc(C(=O)NCC2(N3CCOCC3)CCCCC2)cc1 was tested, and the inhibition was inactive: -3.85%. O=C(NCC1(N2CCCCC2)CCCCC1)c1cccc([N+](=O)[O-])c1 was tested, and the inhibition was inactive: 2.03%. With O=C(NCC1(N2CCCCC2)CCCCC1)c1ccc(OC(F)F)cc1 the inhibition was inactive: -5.49%.
